ChEMBL document CHEMBL3351934, “Monocyclic 4-amino-6-(phenylamino)-1,3,5-triazines as inhibitors of human DNA topoisomerase IIα” (Bioorg Med Chem Lett, 2014)

Experiments:
HepG2 = assay: Cytotoxic activity against human HepG2 cells assessed as reduction in cell viability after 24 hrs by MTT assay; assay type: functional, cell-based
MCF7 = assay: Cytotoxic activity against human MCF7 cells assessed as reduction in cell viability after 24 hrs by MTT assay; assay type: functional, cell-based

## COc1ccc(Nc2nc(N)nc(CSC(=S)N3CCOCC3)n2)cc1
HepG2
  inhibition: Dose-dependent effect
MCF7
  inhibition: Dose-dependent effect
